For one molecule, IC50 results are on record in US9796732B2, “Pyridopyrimidine or pyrimidopyrimidine compound, prepration method, pharmaceutical composition, and use thereof” (Shanghai Institute of Materia Medica, Chinese Academy of …, priority 2013, dated 2017).

Structures are written as SMILES.

One assay deals with human brain glioma U87MG. The assay is described as follows: Cell proliferation assay (MTS), U87MG. It is filed as cell-based. The conditions noted are these: U-87 MG, 72 h, read-out: U87MG IC50 (μM). The procedure:
(§1) Cell proliferation assay was based on two types of cell lines, i.e., human brain glioma U87MG and human prostate cancer LNCap, both of which were from ATCC. U87MG and LNCap contain PTEN gene deletion, and belongs to mTOR signal-dependent tumor cells. Cell culture media and related reagents were from GIBCO. […] Cells/compound was cultured for 3 days, and MTS method was used to test cell proliferation. […] After a suitable time of incubation, the proliferation assay results was recorded on a 96 well plate microplate reader.
(§2) The experimental data were processed with Microsoft Office Excel and Graphpad PRISM 5 to calculate IC50.

The subject of assay [1] is human prostate cancer LNCap. Nature of the assay: Cell proliferation assay (MTS), LNCap. The conditions noted are these: 72 h, read-out: LNCap IC50 (μM). It is filed as cell-based. As for the experimental part: as §1, §2

In the case of `COc1ccc(-c2cc3nc(N4CCOC[C@@H]4C)nc(N4CCOCC4)c3cn2)cc1CO` [Compound 14, (S)-(2-methoxy-5-(2-(3-methylmorpholinyl-4-morpholinyl)pyrido[4,3-d]pyrimidin-7-yl)phenyl)methanol], the values for the IC50 (in the assay with human brain glioma U87MG; in assay [1]) were 11.4 µM and 3.37 µM, respectively.
